Only a part is listed here, and it is no random draw. Active and inactive are the calls of the source.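 Rule for the calls: active = response, share of CD8 T cells binding vesicles, and their 90th percentile fluorescence all below set limits (cut at about 80% in these data, passing the limit was not always enough); inactive = the rest, inconclusive results apart.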
Test: modulators of CD8 T cell-vesicle binding, primary screen, mouse 2C CD8+ T cells, flow cytometry (AID 2052);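 note: values below 100% mean blocked vesicle binding to the CD8+ T cells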
Conditions: 2C CD8+ T cell-vesicle binding, at 7 µM, active compounds read low
Summary of the method: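 incubation = binding step 1.5 h, 37 °C, antibody labelling 20 min, ice | test system = 2C mouse CD8+ T cells | read-out basis = percent CD8+ FL2 mean versus row control | controls = Peptide-free naked vesicles (low) and QL9 vesicles with 0.7% DMSO vehicle (high) | detection = flow cytometry of vesicle-bound cells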

| Compound | response (vesicle binding) |
| --- | --- |
| CN(C)C(=O)OCCc1n(C)cc[n+]1C | inactive: 201% |
| CC(C)=N/N=C(\N)N[N+](=O)[O-] | inactive: 381% |
| CN(C)C(=O)c1c([N+](=O)[O-])cc([N+](=O)[O-])cc1[N+](=O)[O-] | inactive: 360% |
| CC1CCN(C(=O)Oc2c(Cl)cc(Cl)c3cccnc23)CC1 | inactive: 194% |
| COc1ccccc1OP(C)(=O)Nc1ccccc1Br (stereo not given) | inactive: 1020% |
| Nc1ccc([As](=O)(O)c2ccc(N)cc2)cc1 | inactive: 366% |
| CC(C)(C)c1ccc(OP(C)(=O)O)cc1 | inactive: 401% |
| CP(=O)(Nc1ccc(Cl)cc1)Oc1ccc(F)cc1 (stereo not given) | inactive: 392% |
| CCN(/C(=N/P(=O)(N1CCOCC1)N1CCOCC1)N1CCOCC1)c1ccc(OC)cc1 | inactive: 419% |
| O=C(OCCCN1CCCC1)C(O)(c1ccccc1)C1CCCCC1 (stereo not given) | inactive: 254% |
| CC(=O)N1C2C3N(C(C)=O)C1C1N(C(C)=O)C(C(N1C(C)=O)N3C(C)=O)N2C(C)=O | inactive: 345% |
| O=[N+]([O-])c1cccc2n[nH]nc12 | inactive: 397% |
| COc1ccccc1OP(C)(=O)Nc1c(C)n(C)n(-c2ccccc2)c1=O (stereo not given) | inactive: 309% |
| CCc1ccc(OP(C)(=O)Nc2cccnc2)cc1 (stereo not given) | inactive: 267% |
| O=[N+]([O-])c1cc([N+](=O)[O-])c(CCNc2ccccc2)c([N+](=O)[O-])c1 | inactive: 373% |
| CCc1nc2c(n1)c1c(non1O)c1c2no[n+]1[O-] | inactive: 248% |
| CP(=O)(Oc1ccccc1)N1CCOC1=O (stereo not given) | inactive: 122% |
| Cc1ccc(NP(=O)(Oc2ccccc2)Oc2ccccc2)nc1 | inactive: 259% |
| COc1ccc(OP(C)(=O)Nc2ccc(Br)cc2)cc1 (stereo not given) | inactive: 201% |
| COc1ccc(C2=NCC(CBr)S2)cc1 (stereo not given) | inactive: 485% |
| CCN(CC)CC(O)COC(=O)C(O)(c1ccccc1)C1CCCCC1 (stereo not given) | inactive: 542% |
| O=[N+]([O-])c1cccc(NC2=NCC(CBr)S2)c1 (stereo not given) | inactive: 859% |
| O=C(O)CNc1ccc([As](=O)(O)O)cc1 | inactive: 168% |
| CC(C)(C)C(=O)NC(Sc1ccncn1)C(Cl)(Cl)Cl (stereo not given) | inactive: 449% |
| O=[N+]([O-])c1ncn(CCn2ncnc2[N+](=O)[O-])n1 | inactive: 308% |

| Compound | response (vesicle binding) |
| --- | --- |
| O=C(Nc1cc([As](=O)(O)O)ccc1O)c1ccccc1 | inactive: 322% |
| CCOC(=O)c1ccc(NP(C)(=O)Oc2ccc(Cl)cc2)cc1 (stereo not given) | inactive: 263% |
| CP(=O)(OC12CC3CC(CC(C3)C1)C2)OC12CC3CC(CC(C3)C1)C2 | inactive: 214% |
| Nc1ccc2c(ccc3cccnc32)n1.O=[N+]([O-])c1cc([N+](=O)[O-])c(O)c([N+](=O)[O-])c1 | inactive: 297% |
| CCN(N=Nc1nonc1N)c1nonc1N | inactive: 303% |
| CP(=O)(Nc1ccc(Cl)cc1Cl)Oc1ccccc1 (stereo not given) | inactive: 216% |
| CP(=O)(OCCOc1ccccc1)OCCOc1ccccc1 | inactive: 284% |
| Nc1cccc2ccc([As](=O)(O)O)cc12 | inactive: 129% |
| Cc1nc2ccc3ccccc3c2o1.O=[N+]([O-])c1cc([N+](=O)[O-])c(O)c([N+](=O)[O-])c1 | inactive: 266% |
| O=[N+]([O-])c1cc([N+](=O)[O-])c(CCN2CCOCC2)c([N+](=O)[O-])c1 | inactive: 196% |
| COc1ccccc1OP(C)(=O)Nc1ccc(C)c(C)c1 (stereo not given) | inactive: 135% |
| CN(C(=O)Cc1ccc(Cl)c(Cl)c1)[C@H]1CCCC[C@@H]1N1CCCC1 | inactive: 315% |
| Cc1ccc(NP(=O)(Oc2ccccc2F)Oc2ccccc2F)nc1 | inactive: 186% |
| Cc1cc(SC(NC(=O)c2ccc(F)cc2)C(Cl)(Cl)Cl)ncn1 (stereo not given) | inactive: 86% |
| CCOP(=O)(Nc1ccccc1)OCC | inactive: 520% |
| COc1ccc(OP(C)(=O)Nc2ccccc2Br)cc1 (stereo not given) | inactive: 208% |
| CC(=O)Nc1ccc([As](=O)(O)O)cc1 | inactive: 177% |
| O=C(O)c1ccccc1[As](=O)(O)O | inactive: 56.7% |
| O=P(Nc1nc2ccc(Cl)cc2s1)(c1ccccc1)c1ccccc1 | inactive: 479% |
| Cc1cc(C)cc(OP(C)(=O)Nc2cccc(C(F)(F)F)c2)c1 (stereo not given) | inactive: 178% |
| COc1ccccc1OP(C)(=O)Nc1ccc(C)cc1C (stereo not given) | inactive: 405% |
| CP(=O)(Nc1ccccn1)Oc1ccccc1 (stereo not given) | inactive: 240% |
| CCc1ccc(OP(C)(=O)O)cc1 | inactive: 305% |
| Nc1cc(N)c2nonc2c1[N+](=O)[O-] | inactive: 637% |
| Cc1c(NP(C)(=O)Oc2ccc(C(C)C)cc2)c(=O)n(-c2ccccc2)n1C (stereo not given) | inactive: 284% |
